Experimental data from ChEMBL document CHEMBL3864151, “Discovery of imidazopyridazines as potent Pim-1/2 kinase inhibitors” (Bioorg Med Chem Lett, 2016).
Each block holds one molecule with its values, some of them ahead of it.

Chains of the proteins cited; added tags and fusions are not shown. Lines headed by an entry give the natural chain unless they say otherwise; changes in a name come on top.
UniProt Q9P1W9: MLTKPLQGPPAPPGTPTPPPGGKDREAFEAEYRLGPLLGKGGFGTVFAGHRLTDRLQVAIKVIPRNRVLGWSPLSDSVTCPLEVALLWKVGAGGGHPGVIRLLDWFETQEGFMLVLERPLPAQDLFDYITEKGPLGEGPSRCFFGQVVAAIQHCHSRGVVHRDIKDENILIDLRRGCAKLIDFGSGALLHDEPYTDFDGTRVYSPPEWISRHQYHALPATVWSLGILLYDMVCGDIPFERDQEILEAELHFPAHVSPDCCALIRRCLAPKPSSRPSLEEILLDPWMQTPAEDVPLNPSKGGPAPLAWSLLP
UniProt P11309, whole entry: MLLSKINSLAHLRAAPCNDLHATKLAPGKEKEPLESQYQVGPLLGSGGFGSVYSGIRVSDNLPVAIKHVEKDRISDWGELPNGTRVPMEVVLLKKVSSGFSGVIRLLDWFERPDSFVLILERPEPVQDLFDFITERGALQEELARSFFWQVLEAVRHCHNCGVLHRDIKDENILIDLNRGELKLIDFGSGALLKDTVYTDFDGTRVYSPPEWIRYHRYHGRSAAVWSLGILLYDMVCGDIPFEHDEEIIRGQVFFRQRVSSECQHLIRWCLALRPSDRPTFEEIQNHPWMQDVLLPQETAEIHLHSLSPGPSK

Columns and labels:
[1] = molecular target: Serine/threonine-protein kinase pim-2 (Homo sapiens, UniProt Q9P1W9); assay: Inhibition of recombinant Pim2 (unknown origin) by electrochemiluminescence assay
[2] = Intrinsic clearance in human liver microsomes at 1 uM after 30 mins by LC-MS HRMS analysis; assay type: ADME; details: read-out: CLH
[3] = molecular target: Serine/threonine-protein kinase pim-3 (Homo sapiens, UniProt Q86V86); assay: Inhibition of Pim3 (unknown origin)
[4] = molecular target: Serine/threonine-protein kinase PIM (Homo sapiens, UniProt P11309+Q9P1W9+Q86V86); assay: Inhibition of Pim1/2 in human KMS-12 cells assessed as decrease in BAD phosphorylation at Ser112 by Western blot method; assay type: cell-based
[5] = molecular target: Serine/threonine-protein kinase pim-1 (Homo sapiens, UniProt P11309); assay: Inhibition of recombinant Pim1 (unknown origin) by electrochemiluminescence assay

Compound: C[C@H]1[C@@H](N)CCCN1c1ccncc1Nc1ncc2ccc(-c3c(F)cccc3F)nn12
microsomal CLint at 1 µM [2]: 102 µL/min/mg | IC50 [1]: 5.4 nM

Compound: C[C@@H]1C[C@H](N)CN(c2ccncc2Nc2ncc3ccc(-c4c(F)cccc4F)nn23)C1
IC50 [3]: 0.027 nM | IC50 [1]: 0.094 nM | IC50 [4]: 28 nM | IC50 [5]: 0.024 nM

Compound: C[C@@H]1CC[C@H](N)CN1c1ccncc1Nc1ncc2ccc(-c3c(F)cccc3F)nn12
IC50 [1]: 0.31 nM | IC50 [4]: 49 nM | IC50 [5]: 0.021 nM

The remaining lines, values ahead:

IC50 [1]: 0.79 nM
Compound: C[C@H]1C[C@H](N)CN(c2ccncc2Nc2ncc3ccc(-c4c(F)cccc4F)nn23)C1

IC50 [1]: 0.29 nM
Compound: C[C@@H]1[C@@H](N)CCCN1c1ccncc1Nc1ncc2ccc(-c3c(F)cccc3F)nn12
